Assay results taken from patent US20240041877A1, “DOSAGE REGIME AND METHOD FOR TREATING PULMONARY ARTERIAL HYPERTENSION” (Altavant Sciences GmbH, priority 2019, published 2024).

Assay: Study KAR5585-101 Part 1 (SAD): plasma pharmacokinetics after a single oral dose of KAR5585, fasting and fed (incl. dose proportionality and food effect)
Conditions: human, in vivo, 2000 mg, AUC0-24, 2000 mg KAR5585 single oral, fasted, Cohort 6, Mean

Which AUC(0-t) does the source give for CCOC(=O)[C@@H]1CC2(CCN(c3cc(O[C@H](c4ccc(Cl)cc4-c4ccccc4)C(F)(F)F)nc(N)n3)CC2)CN1 [KAR5585, (S)-ethyl 8-(2-amino-6-((R)-1-(5-chloro-[1,1′-biphenyl]-2-yl)-2,2,2-trifluoroethoxy)pyrimidin-4-yl)-2,8-diazaspiro[4.5]decane-3-carboxylate] here?
The AUC(0-t) was 806 ng·h/mL.
